This note sets out measurements from PubChem BioAssay AID2331 (The Scripps Research Institute Molecular Screening Center, 2010).

Chains of the proteins cited; added tags and fusions are not shown.
UniProt P53041, whole entry: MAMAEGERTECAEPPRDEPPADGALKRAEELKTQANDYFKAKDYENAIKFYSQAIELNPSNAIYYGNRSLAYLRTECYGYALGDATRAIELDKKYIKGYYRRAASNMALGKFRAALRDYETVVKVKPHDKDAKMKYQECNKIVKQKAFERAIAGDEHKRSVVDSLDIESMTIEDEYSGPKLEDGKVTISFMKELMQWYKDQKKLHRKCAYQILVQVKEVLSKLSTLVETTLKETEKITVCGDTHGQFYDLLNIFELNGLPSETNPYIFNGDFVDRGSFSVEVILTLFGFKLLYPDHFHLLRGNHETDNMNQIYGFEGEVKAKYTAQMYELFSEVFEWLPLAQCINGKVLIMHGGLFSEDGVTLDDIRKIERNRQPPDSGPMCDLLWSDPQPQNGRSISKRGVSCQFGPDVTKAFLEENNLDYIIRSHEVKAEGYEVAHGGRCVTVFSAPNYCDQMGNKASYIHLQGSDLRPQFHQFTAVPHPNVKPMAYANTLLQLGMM

The entries are a selection whose mix differs from that of the whole data set. The source made the active and inactive calls. Cut-off read from the data, not from the text of the source: active = inhibition above about 9.5%; inactive = the rest.

The assay addresses Serine/threonine-protein phosphatase 5 (Homo sapiens) (UniProt P53041). Description: inhibition of human PPP5C phosphatase activity – biochemical, fluorescence, confirmation (AID 2331). The conditions noted are these: Purified PP5, fluorogenic phosphatase substrate, at 6.7 µM, active compounds read high.

In the case of `Cc1cc(C)cc(OP(C)(N)=O)c1` (stereo unspecified), the inhibition was inactive: -2.07%.
